Earlier results as cited in PMC2665295.

Target: CaMKII (UniProt Q9UQM7)
Assay: kinetics
Settings: cited from earlier work

Substance: Calmodulin (from UniProt P0DP29)
- Kd: 74 nM
